According to ChEMBL document CHEMBL4196060, “Synthesis and biological evaluation of indole-based UC-112 analogs as potent and selective survivin inhibitors” (Eur J Med Chem, 2018):

Tests used:
Format in all cases: functional
[1] = Resistance index, ratio of IC50 for human M14/MDR1 cells to IC50 for human M14 cells
[2] = Resistance index, ratio of IC50 for human KB-C2 cells to IC50 for IC50 for human KB-3-1 cells
[3] = Resistance index, ratio of IC50 for human SW620/AD300 cells to IC50 for human SW620 cells

Row | Structure (SMILES) | Ratio IC50 [1] | Ratio IC50 [2] | Ratio IC50 [3]
1 | COc1ccc2ccn(Cc3cc(CN4CCCC4)c(O)c4ncccc34)c2c1 | 3.1 | 0.34 | 0.32
2 | Oc1c(CN2CCCC2)cc(Cn2ccc3ccc(Cl)cc32)c2cccnc12 | 4.8 | 0.15 | 0.21
3 | Oc1c(CN2CCCC2)cc(Cn2ccc3cc(F)ccc32)c2cccnc12 |  | 0.13 | 0.17
